Assay results published in patent publication US20030055244A1, “Pyridyl-containing spirocyclic compounds as inhibitors of fibrinogen-dependent platelet aggregation” (priority 1999, published 2003).

The chains behind the UniProt entries cited, without tags or fusion partners. Residues count along the entry.
UniProt P05106, 27-788: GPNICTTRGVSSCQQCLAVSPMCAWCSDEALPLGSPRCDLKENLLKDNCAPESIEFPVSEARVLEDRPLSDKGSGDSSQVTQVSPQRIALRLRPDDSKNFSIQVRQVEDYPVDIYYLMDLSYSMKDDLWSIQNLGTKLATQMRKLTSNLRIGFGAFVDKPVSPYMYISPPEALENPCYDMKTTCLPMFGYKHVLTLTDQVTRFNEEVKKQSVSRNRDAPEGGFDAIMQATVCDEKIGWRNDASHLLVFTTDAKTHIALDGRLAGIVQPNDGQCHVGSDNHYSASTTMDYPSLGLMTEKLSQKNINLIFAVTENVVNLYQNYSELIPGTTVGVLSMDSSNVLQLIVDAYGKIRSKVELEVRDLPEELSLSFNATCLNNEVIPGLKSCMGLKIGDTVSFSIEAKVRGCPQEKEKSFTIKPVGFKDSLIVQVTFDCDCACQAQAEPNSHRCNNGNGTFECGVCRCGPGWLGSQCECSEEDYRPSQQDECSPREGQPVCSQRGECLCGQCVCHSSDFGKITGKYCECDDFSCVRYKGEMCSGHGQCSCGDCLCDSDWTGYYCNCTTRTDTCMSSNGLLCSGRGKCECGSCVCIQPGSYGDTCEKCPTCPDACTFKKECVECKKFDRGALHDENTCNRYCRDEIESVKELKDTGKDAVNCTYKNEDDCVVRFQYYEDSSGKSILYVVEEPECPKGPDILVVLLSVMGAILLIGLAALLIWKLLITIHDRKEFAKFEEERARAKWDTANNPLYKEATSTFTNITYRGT
UniProt P08514, 32-887 limits assumed: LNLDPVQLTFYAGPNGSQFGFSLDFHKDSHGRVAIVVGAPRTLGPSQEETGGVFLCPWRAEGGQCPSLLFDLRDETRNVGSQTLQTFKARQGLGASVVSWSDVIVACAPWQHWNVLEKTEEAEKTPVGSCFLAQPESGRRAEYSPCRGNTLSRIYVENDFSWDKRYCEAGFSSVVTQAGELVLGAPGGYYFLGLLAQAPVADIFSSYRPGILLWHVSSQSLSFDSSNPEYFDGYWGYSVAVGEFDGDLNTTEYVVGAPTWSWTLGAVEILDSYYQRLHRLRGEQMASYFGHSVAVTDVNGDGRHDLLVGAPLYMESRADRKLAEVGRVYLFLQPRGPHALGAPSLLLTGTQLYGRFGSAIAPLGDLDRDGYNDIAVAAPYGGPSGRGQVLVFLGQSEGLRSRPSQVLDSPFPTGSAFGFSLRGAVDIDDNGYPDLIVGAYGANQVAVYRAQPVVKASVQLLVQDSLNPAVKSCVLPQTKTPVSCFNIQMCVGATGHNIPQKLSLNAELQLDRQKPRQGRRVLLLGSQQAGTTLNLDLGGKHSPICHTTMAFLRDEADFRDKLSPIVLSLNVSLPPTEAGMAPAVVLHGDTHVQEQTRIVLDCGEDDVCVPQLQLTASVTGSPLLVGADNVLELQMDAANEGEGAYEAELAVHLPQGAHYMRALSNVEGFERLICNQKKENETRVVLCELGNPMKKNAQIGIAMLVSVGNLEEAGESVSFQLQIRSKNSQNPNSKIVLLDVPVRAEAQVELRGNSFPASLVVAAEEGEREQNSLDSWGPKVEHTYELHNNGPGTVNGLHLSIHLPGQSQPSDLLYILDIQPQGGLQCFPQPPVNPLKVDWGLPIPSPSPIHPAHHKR
UniProt P08514, 891-1039 limits assumed: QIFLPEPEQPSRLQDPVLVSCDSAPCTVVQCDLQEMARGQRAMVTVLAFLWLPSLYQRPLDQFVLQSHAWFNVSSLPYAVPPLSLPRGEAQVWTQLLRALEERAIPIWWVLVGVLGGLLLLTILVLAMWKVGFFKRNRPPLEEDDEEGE

Target: T1, GPIIb-IIIa (Homo sapiens, UniProt P05106+P08514)
T1 construct: Purified platelet GPIIb-IIIa receptor was prepared as described by Fitzgerald; from tissue; host or cells: platelets
Experiment: ELISA IIb-IIIa assay (fibrinogen binding to immobilized purified GPIIb-IIIa)
Conditions: inhibition of fibrinogen binding to purified GPIIb-IIIa
Procedure: No. 1 - The ELISA IIb-IIIa Assay
PIIb-IIIa is coated onto microtiter plates. The coated support is then contacted with fibrinogen and with the test material (e.g., compounds of Formula I) and incubated for a sufficient time to permit maximal binding of fibrinogen to the immobilized GPIIb- Ila. Fibrinogen is typically provided at a concentration of about 5-50 nM and the test material can, if desired, be added at a series of dilution. Typical incubations are 2 to 4 hours at 25° C., the time and temperature being interdependent.
After incubation, the solution containing the fibrinogen and test material is removed and the level of binding of fibrinogen measured by quantitating bound fibrinogen to GPIIb-IIIa. Any suitable means of detection may be used, but it is convenient to employ labeled fibrinogen, for example using biotinylated labels. Such methods are well known in the art.
A. Description of Assays—Plate Assays
After purification, the receptors were stored in 0.1% Triton X-100 at 0.1-1.0 mg/ml. […]
The corresponding ligands (fibrinogen, von Willebrand Factor, or vitronectin) were conjugated to biotin using commercially available reagents and standard protocols. […] After incubation, the wells are aspirated to dryness and bound ligand is quantitated. […]

SMILES: Cc1ccc(S(=O)(=O)N[C@@H](CCC(=O)N2CCC3(CC2)CCN(c2ccncc2)CC3)C(=O)O)cc1 [Example 7, 2(S)-2-{[(4-methylphenyl)sulfonyl]amino}-5-oxo-5-[9-(4-pyridyl)-3,9-diazaspiro [5.5]undec-3-yl]pentanoic acid]
- IC50: 2 nM
